Where two headings read alike, the source gives them in different places.

Chains of the proteins cited; added tags and fusions are not shown. Residues count along the entry.
UniProt O00763, 129-2458: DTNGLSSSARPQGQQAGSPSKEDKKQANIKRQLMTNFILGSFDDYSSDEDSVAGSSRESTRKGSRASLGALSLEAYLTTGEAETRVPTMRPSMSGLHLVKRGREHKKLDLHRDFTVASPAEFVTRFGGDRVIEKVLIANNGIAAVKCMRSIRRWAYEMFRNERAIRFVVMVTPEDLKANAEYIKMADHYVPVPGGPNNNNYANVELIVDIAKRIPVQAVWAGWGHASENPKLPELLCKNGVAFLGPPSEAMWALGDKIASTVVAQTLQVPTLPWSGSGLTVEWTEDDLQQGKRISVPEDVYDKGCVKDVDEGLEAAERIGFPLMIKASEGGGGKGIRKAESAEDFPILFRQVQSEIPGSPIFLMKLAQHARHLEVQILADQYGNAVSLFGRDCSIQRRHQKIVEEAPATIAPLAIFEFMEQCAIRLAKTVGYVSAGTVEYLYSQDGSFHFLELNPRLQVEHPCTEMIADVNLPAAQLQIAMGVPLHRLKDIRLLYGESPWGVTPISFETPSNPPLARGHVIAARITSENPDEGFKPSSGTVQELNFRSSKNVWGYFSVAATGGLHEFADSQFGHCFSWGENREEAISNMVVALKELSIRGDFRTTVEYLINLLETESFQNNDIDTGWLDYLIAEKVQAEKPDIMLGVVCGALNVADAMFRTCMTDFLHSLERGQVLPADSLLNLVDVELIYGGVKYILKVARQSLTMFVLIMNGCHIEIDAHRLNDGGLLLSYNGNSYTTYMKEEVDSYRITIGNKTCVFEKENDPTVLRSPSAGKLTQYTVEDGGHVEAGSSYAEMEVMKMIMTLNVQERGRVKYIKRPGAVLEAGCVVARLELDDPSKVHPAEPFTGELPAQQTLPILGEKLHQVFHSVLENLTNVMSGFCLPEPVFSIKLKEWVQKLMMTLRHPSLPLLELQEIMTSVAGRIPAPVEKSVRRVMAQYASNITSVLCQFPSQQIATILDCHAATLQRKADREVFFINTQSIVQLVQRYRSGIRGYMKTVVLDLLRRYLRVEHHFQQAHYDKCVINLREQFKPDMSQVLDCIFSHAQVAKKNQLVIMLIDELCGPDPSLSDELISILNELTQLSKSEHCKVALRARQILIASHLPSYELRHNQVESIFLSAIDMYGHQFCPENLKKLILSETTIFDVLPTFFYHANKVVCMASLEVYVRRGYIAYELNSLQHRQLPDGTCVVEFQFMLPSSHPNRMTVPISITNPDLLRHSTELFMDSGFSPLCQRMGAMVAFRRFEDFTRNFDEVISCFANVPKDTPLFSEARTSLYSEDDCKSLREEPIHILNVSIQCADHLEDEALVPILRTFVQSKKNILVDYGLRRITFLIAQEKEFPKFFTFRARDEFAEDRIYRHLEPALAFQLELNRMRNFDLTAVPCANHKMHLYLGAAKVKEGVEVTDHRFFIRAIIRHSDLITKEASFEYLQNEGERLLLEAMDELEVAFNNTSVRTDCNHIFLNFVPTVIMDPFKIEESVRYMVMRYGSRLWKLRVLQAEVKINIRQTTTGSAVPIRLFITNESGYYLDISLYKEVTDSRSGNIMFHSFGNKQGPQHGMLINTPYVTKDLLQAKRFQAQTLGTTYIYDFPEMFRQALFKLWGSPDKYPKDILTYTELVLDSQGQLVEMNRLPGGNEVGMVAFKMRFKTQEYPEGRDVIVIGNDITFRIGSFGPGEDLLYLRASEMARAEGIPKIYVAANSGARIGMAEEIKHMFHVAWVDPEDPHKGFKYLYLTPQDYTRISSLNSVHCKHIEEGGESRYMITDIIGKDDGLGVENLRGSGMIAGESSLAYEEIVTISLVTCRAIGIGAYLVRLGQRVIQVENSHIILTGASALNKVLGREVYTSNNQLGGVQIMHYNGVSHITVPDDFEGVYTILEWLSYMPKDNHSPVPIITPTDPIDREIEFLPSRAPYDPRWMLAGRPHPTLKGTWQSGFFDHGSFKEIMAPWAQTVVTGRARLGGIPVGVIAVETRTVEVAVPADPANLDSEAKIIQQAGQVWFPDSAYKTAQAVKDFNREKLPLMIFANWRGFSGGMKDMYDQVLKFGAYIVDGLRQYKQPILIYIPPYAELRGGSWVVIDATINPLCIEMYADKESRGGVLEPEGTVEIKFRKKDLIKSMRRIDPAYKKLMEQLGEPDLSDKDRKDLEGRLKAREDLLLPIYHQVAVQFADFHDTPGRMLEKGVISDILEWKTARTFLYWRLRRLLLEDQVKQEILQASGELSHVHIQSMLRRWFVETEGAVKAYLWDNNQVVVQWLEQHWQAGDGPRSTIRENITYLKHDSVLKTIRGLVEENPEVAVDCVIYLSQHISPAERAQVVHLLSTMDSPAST

The assay concerns the target human ACC2 (Homo sapiens (Human), UniProt O00763). Description: ACC2 assay (spectrophotometric 384 well assay, NADH-linked kinetic method). The class given is biochemical. On the procedure: Spectrophotometric 384 Well Assay
Malonyl CoA formation by acetyl CoA carboxylases is stoichometrically linked to the consumption of ATP. ACC2 activity is measured in a NADH-linked kinetic method measuring ADP generated during the ACC reaction using a coupled lactate dehydrogenase/pyruvate kinase reaction.
The protein is then expressed in insect cells using a baculoviral expression system. Protein purification is performed by anion exchange.
All compounds are dissolved in dimethyl sulfoxide (DMSO) to a concentration of 10 mM.
The enzymatic reaction is then started by addition of a mixture of NADH, acetyl
Coenzyme A (both […].) and ATP (500 uM f.c.). The decrease of the optical density (slope S) is then determined at 25° C. at a wavelength of 340 nm over 15 minutes in a spectrophotometric reader.
Each assay microtiter plate contains wells with vehicle instead of compound as controls for the non-inhibited enzyme (100% CTL; ‘HIGH’) and wells without acetyl-CoA as controls for non-specific NADH degradation (0% CTL; ‘LOW’).

The mark [1] stands for this setting: hACC2 construct lacking the 128 N-terminal amino acids, 25° C., 340 nm over 15 minutes.

In general, IC50 refers to the concentration needed to halve the response being measured. A lower IC50 goes with greater potency in that assay. Turning to `CC(C(=O)NC1CC1)c1ccc(O[C@@H]2CCN(c3ncnc(OCC(C)(C)O)c3Cl)C2)cc1` (stereo partly drawn) [Example 1.1, 2-(4-(1-[5-Chloro-6-(2-hydroxy-2-methyl-propoxy)-pyrimidin-4-yl]-(R)-pyrrolidin-3-yloxy)-phenyl)-N-cyclopropyl-propionamide], the IC50 is 139 nM.

Under setting [1], `CC(C(N)=O)c1ccc(O[C@@H]2CCN(c3ncnc(OCC(C)(C)O)c3Cl)C2)cc1` (stereo partly shown) [Example 3.11] gave an IC50 of 1010 nM. In the case of `CC(C#N)NC(=O)C(C)c1ccc(O[C@@H]2CCN(c3ncnc(OCC(C)(C)O)c3Cl)C2)cc1` (stereo partly shown) [Example 3.13], 1950 nM corresponded to half-maximal inhibition under setting [1] (IC50). On the same count and under the same terms, to `CCCOc1ccc(N2CC[C@@H](Oc3ccc(C(C)C(=O)NCC)cc3)C2)cc1` (stereo partly shown) [Example 7.34] belongs 75 nM.

The values are drawn from patent US9278954B2, “Pyrrolidine derivatives, pharmaceutical compositions and uses thereof” (Boehringer Ingelheim International GmbH, priority 2013, dated 2016).
